Results published in PubChem BioAssay AID651560 (Sanford-Burnham Center for Chemical Genomics, 2012).
The entries are a selection whose mix differs from that of the whole data set. The source made the active and inactive calls.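 How the source made its calls: active means compounds that cut the enzyme signal by at least half of the control window in the single-dose screen; inactive means the rest.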

Protein sequences, listed by entry. Tags and fused reporters are not part of them. Lines headed by an entry give the natural chain unless they say otherwise; changes in a name come on top.
UniProt P24666: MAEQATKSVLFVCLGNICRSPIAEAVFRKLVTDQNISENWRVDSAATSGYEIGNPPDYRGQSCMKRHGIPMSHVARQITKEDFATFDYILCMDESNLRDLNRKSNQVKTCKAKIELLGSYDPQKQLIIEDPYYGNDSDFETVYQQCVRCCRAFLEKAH

biological target: Low molecular weight phosphotyrosine protein phosphatase (Homo sapiens) (UniProt P24666); test: LMPTP phosphatase inhibitors, primary screen, biochemical, fluorescence intensity, uHTS (AID 651560); details: recombinant LMPTP-A, OMFP fluorogenic substrate, at 20 µM, stronger effect = higher value;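 further: plate controls were DMSO wells with enzyme plus substrate for no effect and substrate without enzyme for full effect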
In short: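 material = LMPTP-A | quantity = 0.625 nM enzyme | reagent = OMFP substrate, 400 µM final | buffer or medium = Bis-Tris pH 6.0, DTT, detergent | detection = endpoint fluorescence intensity from OMFP dephosphorylation | dosing = single 20 µM dose | read-out basis = % inhibition relative to no-enzyme and uninhibited control wells | control set = no-enzyme and uninhibited controls | timing = 50 min at room temperature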

How did the inhibition turn out when O=[N+]([O-])c1cc(Oc2ccc([N+](=O)[O-])cc2C(F)(F)F)cc([N+](=O)[O-])c1 was run?
The inhibition was inactive: 1.09%.

For COc1ccc(N/C(=N/P(=O)(N2CCOCC2)N2CCOCC2)N2CCOCC2)cc1, which inhibition is on record?
Its inhibition is inactive: -0.448%.

Which inhibition does the source give for Cc1c2c(nc3ccccc13)SC(C(Cl)Cl)C2 (configuration not stated) here?
The inhibition was inactive: 0.394%.

With O=C(OC1CN2CCC1CC2)C12CC3CC(CC(C3)C1)C2 (configuration not stated) as the compound, how does the inhibition read?
The inhibition was inactive: -0.971%.

For Cc1cc(=O)[nH]c(N[N+](=O)[O-])n1, which inhibition is on record?
The inhibition was inactive: -2.31%.

Which inhibition does the source give for O=P1(N(CCCl)CCCl)Nc2ccccc2N1 here?
The inhibition was inactive: -4.92%.

O=P1(N(CCCl)CCCl)OCCCN1CCCl (configuration not stated) was tested. Which inhibition did it give?
The inhibition was inactive: -2.77%.

COc1ccc2nc(NP(=O)(c3ccccc3)c3ccccc3)sc2c1 was tested. Which inhibition did it give?
The inhibition was inactive: -0.838%.

COc1cc(I)ccc1[As](=O)(O)O was tested. Which inhibition did it give?
Its inhibition is inactive: -0.203%.

O=C(OC1CN2CCC1CC2)c1cccc([N+](=O)[O-])c1 (configuration not stated) was tested. Which inhibition did it give?
Its inhibition is inactive: -1.29%.

How did the inhibition turn out when CSc1ccc(Nc2c([N+](=O)[O-])cc([N+](=O)[O-])cc2[N+](=O)[O-])cc1 was run?
The inhibition was inactive: 3.5%.

With CCOC(=O)c1ccc(NC(=O)C(C)(CCl)SC)cc1 (configuration not stated) as the compound, how does the inhibition read?
Its inhibition is inactive: -2.65%.

CCC(C)N(CC(C)C)C(=S)SC(NC(C)=O)C(Cl)(Cl)Cl (configuration not stated) was tested. Which inhibition did it give?
The inhibition was inactive: -0.0562%.

COP1(=S)c2c(C)nn(CCC#N)c2N=C(c2ccc(F)cc2)N1C (configuration not stated) was tested. Which inhibition did it give?
The inhibition was inactive: -0.961%.

COC(=O)C1(C)COP(=O)(N2CCCC2)OC1 (configuration not stated) was tested. Which inhibition did it give?
The inhibition was inactive: -1.71%.

O=C(O)C(=O)c1ccc(N(CCCl)CCCl)cc1 was tested. Which inhibition did it give?
Its inhibition is inactive: 47.2%.

For O=C(COc1ccccc1)OC1CN2CCC1CC2 (configuration not stated), which inhibition is on record?
The inhibition was inactive: -0.833%.

With O=C(Nc1ccncc1[N+](=O)[O-])c1ccc([N+](=O)[O-])cc1[N+](=O)[O-] as the compound, how does the inhibition read?
The inhibition was inactive: -1.46%.

Which inhibition does the source give for CCOC(=O)Nc1cccc([As](=O)(O)O)c1 here?
The inhibition was inactive: -2.23%.

For Cc1cc(SC(NC=O)C(Cl)(Cl)Cl)ncn1 (configuration not stated), which inhibition is on record?
The inhibition was inactive: 0.0497%.

O=P(Nc1ccccn1)(c1cccc2ccccc12)c1cccc2ccccc12 was tested. Which inhibition did it give?
The inhibition was inactive: -0.313%.

For O=[N+]([O-])c1ccc(Nc2ccc(Oc3ccc([N+](=O)[O-])cc3[N+](=O)[O-])cc2)c([N+](=O)[O-])c1, which inhibition is on record?
The inhibition was inactive: 2.3%.

With O=C(O)C(O)c1ccc(N(CCCl)CCCl)cc1 (configuration not stated) as the compound, how does the inhibition read?
Its inhibition is inactive: 6.92%.

How did the inhibition turn out when CCOC(=O)Nc1ccc([As](=O)(O)O)c(O)c1 was run?
The inhibition was inactive: -0.408%.

With CC1CCNP(=O)(N(CCCl)CCCl)O1 (configuration not stated) as the compound, how does the inhibition read?
Its inhibition is inactive: -8.26%.

Which inhibition does the source give for COP(=O)(OC)N1CC1c1ccccc1 (configuration not stated) here?
Its inhibition is inactive: -1.65%.

How did the inhibition turn out when CCCCOc1ccc(C(=O)NCC2(N3CCCCC3)CCCCC2)cc1OC was run?
The inhibition was inactive: -1.5%.

Which inhibition does the source give for Cc1cc(SC(NC(=O)c2ccccc2)C(Cl)(Cl)Cl)nc(C(C)C)n1 (configuration not stated) here?
Its inhibition is inactive: 2.04%.

Which inhibition does the source give for Cc1ccc(S(=O)(=O)N(CCCN)CCCc2c(C)nc(N)[nH]c2=O)cc1 here?
Its inhibition is inactive: 4.06%.

How did the inhibition turn out when O=P1(Nc2ncccn2)COc2ccccc2OC1 was run?
The inhibition was inactive: -2.38%.

With Nc1cccc([As](=O)(O)c2ccccc2)c1 as the compound, how does the inhibition read?
The inhibition was inactive: -0.489%.

With Cc1ccc(OCC(=O)OC2CN3CCC2CC3)cc1 (configuration not stated) as the compound, how does the inhibition read?
Its inhibition is inactive: -1.88%.

O=[As](O)(c1cccs1)c1cccs1 was tested. Which inhibition did it give?
Its inhibition is inactive: -2.17%.

Which inhibition does the source give for NS(=O)(=O)c1cccc(NC(=O)COC(=O)C(O)(c2ccccc2)c2ccccc2)c1 here?
The inhibition was inactive: -0.518%.

With O=P1(Nc2ccc(Br)cn2)COc2ccccc2OC1 as the compound, how does the inhibition read?
Its inhibition is inactive: -0.778%.

Cc1nn(-c2ccccc2)c2c1P(=O)(N1CCOCC1)N(C)C(c1ccccc1)=N2 (configuration not stated) was tested. Which inhibition did it give?
The inhibition was inactive: -1.08%.

Which inhibition does the source give for Cc1ccc(C(=O)OC2CN3CCC2CC3)cc1 (configuration not stated) here?
Its inhibition is inactive: -2.34%.

How did the inhibition turn out when CC1CCC(C(C)C)C(OP(=O)(Nc2ccccn2)c2ccccc2)C1 (configuration not stated) was run?
The inhibition was inactive: -0.414%.

With CN(C)C1(CNC(=O)c2ccc(S(C)(=O)=O)cc2)CCCCC1 as the compound, how does the inhibition read?
Its inhibition is inactive: -0.289%.

For O=C(/C=C/c1ccccc1)OC1CN2CCC1CC2 (configuration not stated), which inhibition is on record?
The inhibition was inactive: -1.27%.

How did the inhibition turn out when CCCC1OP(=O)(Nc2ccccc2)OCC1CC (configuration not stated) was run?
The inhibition was inactive: -0.727%.

COc1ccccc1CNC(=O)COC(=O)C(O)(c1ccccc1)c1ccccc1 was tested. Which inhibition did it give?
The inhibition was inactive: 0.493%.

For CN(C(=O)Cc1ccc(Cl)c(Cl)c1)[C@@H]1CCCC[C@H]1N1CCCC1, which inhibition is on record?
Its inhibition is inactive: 0.74%.

How did the inhibition turn out when CC(C)/C=N\N=C(\N)N[N+](=O)[O-] was run?
Its inhibition is inactive: -1.05%.

For CC1(CBr)Cn2c(nc3ccccc3c2=O)S1 (configuration not stated), which inhibition is on record?
The inhibition was inactive: 0.564%.

Which inhibition does the source give for CCC1=CC2Cc3nc4ccc(Cl)cc4c(N)c3C(C1)C2 (configuration not stated) here?
Its inhibition is inactive: 7.13%.

How did the inhibition turn out when O=P1(Nc2ccccn2)COc2ccccc2OC1 was run?
Its inhibition is inactive: -1.46%.

With CCOP(=O)(NC(=NC(C)c1ccccc1)NC(C)c1ccccc1)OCC (configuration not stated) as the compound, how does the inhibition read?
The inhibition was inactive: -0.352%.

How did the inhibition turn out when CCOP(=O)(Nc1ccc(C)cn1)OCC was run?
The inhibition was inactive: -2.51%.

How did the inhibition turn out when CN(CCCl)Cc1cc(Cl)c(NC2=NCCN2)c(Cl)c1 was run?
The inhibition was inactive: 1.57%.

For Clc1n[nH]nc1-c1nn[nH][15n]1, which inhibition is on record?
Its inhibition is inactive: -2.11%.

Which inhibition does the source give for O=P1(N(CCCl)CCCl)NCCC(C(F)(F)F)O1 (configuration not stated) here?
Its inhibition is inactive: -4.67%.

How did the inhibition turn out when CC(C)(C)C(=O)NC(Sc1ncccn1)C(Cl)(Cl)Cl (configuration not stated) was run?
Its inhibition is inactive: 1.35%.

How did the inhibition turn out when Cc1ccc(NCCc2c([N+](=O)[O-])cc([N+](=O)[O-])cc2[N+](=O)[O-])cc1 was run?
Its inhibition is inactive: 2.39%.

With Nc1cccc2c([As](=O)(O)O)cccc12 as the compound, how does the inhibition read?
Its inhibition is inactive: 2%.

CCCOP(=S)(Nc1nc(N)cc(=O)[nH]1)OCCC was tested. Which inhibition did it give?
The inhibition was inactive: -0.508%.

With COc1cc(C2NCCC3(OCCO3)C2(C)C)cc(OC)c1OC (configuration not stated) as the compound, how does the inhibition read?
Its inhibition is inactive: -0.376%.

How did the inhibition turn out when CCOP(=O)(Nc1cccc2ccccc12)OCC was run?
The inhibition was inactive: -3.24%.

O=C(OC1CN2CCC1CC2)c1ccc(Cl)cc1 (configuration not stated) was tested. Which inhibition did it give?
Its inhibition is inactive: -1.57%.

With O=[As](O)(O)c1cccnc1 as the compound, how does the inhibition read?
Its inhibition is inactive: -0.283%.

Which inhibition does the source give for COc1cc(C(=O)NCC2(N3CCOCC3)CCCCC2)cc(Cl)c1OC(C)C here?
Its inhibition is inactive: 1.91%.

With CS(=O)(=O)c1ccc(Cl)c(NC(=O)COC(=O)C(O)(c2ccccc2)c2ccccc2)c1 as the compound, how does the inhibition read?
Its inhibition is inactive: 2.75%.

Which inhibition does the source give for Cc1cccc(OCC(=O)OC2CN3CCC2CC3)c1 (configuration not stated) here?
Its inhibition is inactive: -0.803%.

How did the inhibition turn out when O=[As](O)(c1cccc(O)c1)c1cccc(O)c1 was run?
The inhibition was inactive: -0.477%.

How did the inhibition turn out when NC(=O)Nc1ccc([As](=O)(O)O)cc1 was run?
The inhibition was inactive: 0.0578%.

Which inhibition does the source give for N#CCCN(C(=O)COC(=O)C(O)(c1ccccc1)c1ccccc1)c1ccc(F)cc1 here?
Its inhibition is inactive: -0.705%.

Which inhibition does the source give for CCOP1(=S)c2c(C)nn(CCC#N)c2N=C(c2ccc(F)cc2)N1C (configuration not stated) here?
The inhibition was inactive: -1.25%.

Which inhibition does the source give for CN(C(=O)Cc1ccccc1)[C@@H]1CC[C@]2(CCCO2)C[C@H]1N1CCCC1 here?
Its inhibition is inactive: 0.909%.

O=[N+]([O-])c1ccc2c(c1)nnn2O was tested. Which inhibition did it give?
The inhibition was inactive: -0.0505%.

For CN(C)C(=O)c1cc([N+](=O)[O-])cc2c1-c1c(cc([N+](=O)[O-])cc1[N+](=O)[O-])C2=O, which inhibition is on record?
Its inhibition is inactive: 0.393%.

CN(C(=O)Cc1ccc(Cl)c(Cl)c1)[C@H]1CC[C@@]2(CCCO2)C[C@@H]1N1CCCC1 was tested. Which inhibition did it give?
Its inhibition is inactive: -3.32%.

Which inhibition does the source give for CCOP1(=S)c2c(C)nn(CCC#N)c2N=C(c2ccccc2F)N1C (configuration not stated) here?
Its inhibition is inactive: 0.0642%.

O=P(Nc1nccs1)(Oc1ccccc1)Oc1ccccc1 was tested. Which inhibition did it give?
Its inhibition is inactive: 2.17%.

For O=P(Nc1nccs1)(c1ccccc1)c1nc2ccccc2s1 (configuration not stated), which inhibition is on record?
The inhibition was inactive: -1.53%.

Which inhibition does the source give for CS(=O)(=O)c1cc([N+](=O)[O-])c2no[n+]([O-])c2c1 here?
Its inhibition is inactive: -1.11%.

How did the inhibition turn out when O=C(O)COc1ccc([As](=O)(O)O)cc1[N+](=O)[O-] was run?
Its inhibition is inactive: -2.02%.

With Nc1ccccc1[As](=O)(O)c1ccccc1 as the compound, how does the inhibition read?
Its inhibition is inactive: 2.34%.
